According to publication PMC5823669, “Multi-chaperone function modulation and association with cytoskeletal proteins are key features of the function of AIP in the pituitary gland” (Oncotarget, 2018):

Key:
[1] = target: GST-tagged human AIP p.R304* (human) (UniProt O00170); test: affinity purification with mass spectrometry; GST pull-down: 10 ug of purified GST-AIP bait (WT or variant) against 2 mg total protein of GH3 cell lysate; eluates of four experiments pooled; TMTsixplex labelling, Orbitrap MS; peptide intensities minus the GST control, variants given as fold of the WT experiment (WT = 1)
[2] = target: GST-tagged human AIP p.R304Q (human) (UniProt O00170); test: as above

With “ACTB_RAT Actin, cytoplasmic 1 (Actb) (from UniProt P60711 1-375) (natural protein)” the normalized intensity value (fold of the WT AIP pull-down) [1] was 0.6 fold of WT and the normalized intensity value (fold of the WT AIP pull-down) [2] was 0.3 fold of WT.
